Experimental data reported in patent publication US8952157B2, “Apoptosis-inducing agents for the treatment of cancer and immune and autoimmune diseases” (AbbVie Inc., priority 2008, dated 2015).
pKi: −log10 of the molar value.

The chains behind the UniProt entries cited, without tags or fusion partners.
UniProt P10415, whole entry: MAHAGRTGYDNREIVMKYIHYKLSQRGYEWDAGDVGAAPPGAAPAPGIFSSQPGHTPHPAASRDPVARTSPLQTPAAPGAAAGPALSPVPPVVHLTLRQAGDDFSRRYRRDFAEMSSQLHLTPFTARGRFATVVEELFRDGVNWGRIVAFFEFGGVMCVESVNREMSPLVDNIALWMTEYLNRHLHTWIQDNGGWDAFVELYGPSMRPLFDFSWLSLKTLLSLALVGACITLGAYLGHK

The compounds below were run against GST-Bcl-2 (Homo sapiens (Human), UniProt P10415) (assay: Time Resolved-Fluorescence Resonance Energy Transfer (TR-FRET) Bcl-2 binding assay). Settings: GST-Bcl-2 1 nM, F-Bak peptide probe 100 nM, Tb-anti-GST antibody 1 nM; Ki by Wang's equation.
Procedure: Determination of the utility of compounds having Formula (I) as binders to and inhibitors of anti-apoptotic Bcl-2 proteins was performed using the Time Resolved-Fluorescence Resonance Energy Transfer (TR-FRET) Assay. Tb-anti-GST antibody was purchased from Invitrogen (Catalog No. PV4216).
(§1) Representative compounds were serially diluted in dimethyl sulfoxide (DMSO) starting at 50 μM (2× starting concentration; 10% DMSO) and 10 μL were transferred into a 384-well plate. The samples are then mixed on a shaker for 1 minute and incubated for an additional 3 hours at room temperature. For each assay, the probe/antibody and protein/probe/antibody were included on each assay plate as negative and positive controls, respectively. Fluorescence was measured on the Envision (Perkin Elmer) using a 340/35 nm excitation filter and 520/525 (F-Bak peptide) and 495/510 nm (Tb-labeled anti-Histidine antibody) emission filters.
as §1, with “The” for “Representative compounds were serially diluted in dimethyl sulfoxide (DMSO) starting at 50 μM (2× starting concentration; 10% DMSO) and 10 μL were transferred into a 384-well plate. The”, “were” for “are”
The inhibition constant (Ki) is the dissociation constant of an enzyme-inhibitor complex or a protein/small molecule complex, wherein the small molecule is inhibiting binding of one protein to another protein. So a large Ki value indicates a low binding affinity and a small Ki value indicates a high binding affinity.

In order of rising pKi:
1. CC1(C)CCC(CN2CCN(c3ccc(C(=O)NS(=O)(=O)c4ccc(NC5CCN(C6CCOCC6)CC5)c([N+](=O)[O-])c4)c(OCc4csc(N)n4)c3)CC2)=C(c2ccc(Cl)cc2)C1 [Example 219, 2-[(2-amino-1,3-thiazol-4-yl)methoxy]-4-(4-{[2-(4-chlorophenyl)-4,4-dimethylcyclohex-1-en-1-yl]methyl}piperazin-1-yl)-N-({3-nitro-4-[(1-tetrahydro-2H-pyran-4-ylpiperidin-4-yl)amino]phenyl}sulfonyl)benzamide]  7.83
2. CN(C)CCCNc1ccc(S(=O)(=O)NC(=O)c2ccc(N3CCN(Cc4ccccc4-c4ccc(Cl)cc4)CC3)cc2Oc2cccc(N3CCOCC3)c2)cc1[N+](=O)[O-] [Example 32, 4-(4-((4′-chloro-1,1′-biphenyl-2-yl)methyl)piperazin-1-yl)-N-((4-((3-(dimethylamino)propyl)amino)-3-nitrophenyl)sulfonyl)-2-(3-morpholin-4-ylphenoxy)benzamide]  8.80
3. CC1(C)CCC(CN2CCN(c3ccc(C(=O)NS(=O)(=O)c4ccc(NCC5(CO)CCOCC5)c([N+](=O)[O-])c4)c(Oc4ccccc4Cl)c3)CC2)=C(c2ccc(Cl)cc2)C1 [Example 250, 2-(2-chlorophenoxy)-4-(4-{[2-(4-chlorophenyl)-4,4-dimethylcyclohex-1-en-1-yl]methyl}piperazin-1-yl)-N-{[4-({[4-(hydroxymethyl)tetrahydro-2H-pyran-4-yl]methyl}amino)-3-nitrophenyl]sulfonyl}benzamide]  9.17
4. CC1(C)CCC(CN2CCN(c3ccc(C(=O)NS(=O)(=O)c4ccc(NCC5(N)CCOCC5)c([N+](=O)[O-])c4)c(Oc4ccccc4Cl)c3)CC2)=C(c2ccc(Cl)cc2)C1 [Example 191, N-[(4-{[(4-aminotetrahydro-2H-pyran-4-yl)methyl]amino}-3-nitrophenyl)sulfonyl]-2-(2-chlorophenoxy)-4-(4-{[2-(4-chlorophenyl)-4,4-dimethylcyclohex-1-en-1-yl]methyl}piperazin-1-yl)benzamide]  9.26
5. CC1(C)CCC(CN2CCN(c3ccc(C(=O)NS(=O)(=O)c4ccc(NC5CCN(C6CC6)CC5)c([N+](=O)[O-])c4)c(Oc4ccccc4Cl)c3)CC2)=C(c2ccc(Cl)cc2)C1 [Example 65, 2-(2-chlorophenoxy)-4-(4-((2-(4-chlorophenyl)-4,4-dimethylcyclohex-1-en-1-yl)methyl)piperazin-1-yl)-N-((4-((1-cyclopropylpiperidin-4-yl)amino)-3-nitrophenyl)sulfonyl)benzamide]  9.28
6. COCCNc1ccc(S(=O)(=O)NC(=O)c2ccc(N3CCN(CC4=C(c5ccc(Cl)cc5)CC(C)(C)CC4)CC3)cc2Oc2cc(F)cc3[nH]ccc23)cc1[N+](=O)[O-] [Example 269, 4-(4-{[2-(4-chlorophenyl)-4,4-dimethylcyclohex-1-en-1-yl]methyl}piperazin-1-yl)-2-[(6-fluoro-1H-indol-4-yl)oxy]-N-({4-[(2-methoxyethyl)amino]-3-nitrophenyl}sulfonyl)benzamide]  9.33
7. CN1CCN(Nc2ccc(S(=O)(=O)NC(=O)c3ccc(N4CCN(CC5=C(c6ccc(Cl)cc6)CC(C)(C)CC5)CC4)cc3Oc3cc4cc[nH]c4cc3F)cc2[N+](=O)[O-])CC1 [Example 221, 4-(4-{[2-(4-chlorophenyl)-4,4-dimethylcyclohex-1-en-1-yl]methyl}piperazin-1-yl)-2-[(6-fluoro-1H-indol-5-yl)oxy]-N-({4-[(4-methylpiperazin-1-yl)amino]-3-nitrophenyl}sulfonyl)benzamide]  9.64
8. CC1(C)CCC(CN2CCN(c3ccc(C(=O)NS(=O)(=O)c4ccc(NC5CCN(C6CCCC6)CC5)c([N+](=O)[O-])c4)c(Oc4ccccc4F)c3)CC2)=C(c2ccc(Cl)cc2)C1 [Example 134, 4-(4-{[2-(4-chlorophenyl)-4,4-dimethylcyclohex-1-en-1-yl]methyl}piperazin-1-yl)-N-({4-[(1-cyclopentylpiperidin-4-yl)amino]-3-nitrophenyl}sulfonyl)-2-(2-fluorophenoxy)benzamide]  9.74
9. CN(C)CCOc1cccc(-c2ccc(Cl)cc2)c1CN1CCN(c2ccc(C(=O)NS(=O)(=O)c3ccc(NCC4CCOCC4)c([N+](=O)[O-])c3)c(Oc3cnc(N)c(Cl)c3)c2)CC1 [Example 398, 2-[(6-amino-5-chloropyridin-3-yl)oxy]-4-[4-({4′-chloro-3-[2-(dimethylamino)ethoxy]-1,1′-biphenyl-2-yl}methyl)piperazin-1-yl]-N-({3-nitro-4-[(tetrahydro-2H-pyran-4-ylmethyl)amino]phenyl}sulfonyl)benzamide]  9.76
10. CC1(C)CCC(CN2CCN(c3ccc(C(=O)NS(=O)(=O)c4ccc(OCC5COCCO5)c([N+](=O)[O-])c4)c(Oc4cnc(N)c(Cl)c4)c3)CC2)=C(c2ccc(Cl)cc2)C1 (centres unmarked) [Example 344, 2-[(6-amino-5-chloropyridin-3-yl)oxy]-4-(4-{[2-(4-chlorophenyl)-4,4-dimethylcyclohex-1-en-1-yl]methyl}piperazin-1-yl)-N-{[4-(1,4-dioxan-2-ylmethoxy)-3-nitrophenyl]sulfonyl}benzamide]  10.38
11. CC1(C)CCC(CN2CCN(c3ccc(C(=O)NS(=O)(=O)c4ccc(NCCCN5CCOCC5)c([N+](=O)[O-])c4)c(Oc4cccc(F)c4)c3)CC2)=C(c2ccc(Cl)cc2)C1 [Example 114, 4-(4-{[2-(4-chlorophenyl)-4,4-dimethylcyclohex-1-en-1-yl]methyl}piperazin-1-yl)-2-(3-fluorophenoxy)-N-({4-[(3-morpholin-4-ylpropyl)amino]-3-nitrophenyl}sulfonyl)benzamide]  10.44
12. CN(C)C(=O)CN1CCC(Nc2ccc(S(=O)(=O)NC(=O)c3ccc(N4CCN(CC5=C(c6ccc(Cl)cc6)CC(C)(C)CC5)CC4)cc3Oc3cccc(Cl)c3)cc2[N+](=O)[O-])CC1 [Example 189, 2-(3-chlorophenoxy)-4-(4-{[2-(4-chlorophenyl)-4,4-dimethylcyclohex-1-en-1-yl]methyl}piperazin-1-yl)-N-{[4-({1-[2-(dimethylamino)-2-oxoethyl]piperidin-4-yl}amino)-3-nitrophenyl]sulfonyl}benzamide]  10.44
13. CN1CCC(CNc2ccc(S(=O)(=O)NC(=O)c3ccc(N4CCN(CC5=C(c6ccc(Cl)cc6)CC(C)(C)CC5)CC4)cc3Oc3cccc(F)c3F)cc2[N+](=O)[O-])CC1 [Example 156, 4-(4-{[2-(4-chlorophenyl)-4,4-dimethylcyclohex-1-en-1-yl]methyl}piperazin-1-yl)-2-(2,3-difluorophenoxy)-N-[(4-{[(1-methylpiperidin-4-yl)methyl]amino}-3-nitrophenyl)sulfonyl]benzamide]  10.46
14. CN1CCC(Nc2ccc(S(=O)(=O)NC(=O)c3ccc(N4CCN(CC5=C(c6ccc(Cl)cc6)CC(C)(C)CC5)CC4)cc3Oc3ccccc3Br)cc2[N+](=O)[O-])CC1 [Example 42, 2-(2-bromophenoxy)-4-(4-((2-(4-chlorophenyl)-4,4-dimethylcyclohex-1-en-1-yl)methyl)piperazin-1-yl)-N-((4-((1-methylpiperidin-4-yl)amino)-3-nitrophenyl)sulfonyl)benzamide]  10.52
